From article PMC11452043, “In vitro 5-LOX inhibitory and antioxidant potential of isoxazole derivatives” (PLOS ONE, 2024)
Several values for one entry are separate records, joined by “and”; a condition that tells them apart may be missing. Identical values can stand only once.

Amino acid sequences for entries named in this document (tags omitted).
UniProt P09917, whole entry: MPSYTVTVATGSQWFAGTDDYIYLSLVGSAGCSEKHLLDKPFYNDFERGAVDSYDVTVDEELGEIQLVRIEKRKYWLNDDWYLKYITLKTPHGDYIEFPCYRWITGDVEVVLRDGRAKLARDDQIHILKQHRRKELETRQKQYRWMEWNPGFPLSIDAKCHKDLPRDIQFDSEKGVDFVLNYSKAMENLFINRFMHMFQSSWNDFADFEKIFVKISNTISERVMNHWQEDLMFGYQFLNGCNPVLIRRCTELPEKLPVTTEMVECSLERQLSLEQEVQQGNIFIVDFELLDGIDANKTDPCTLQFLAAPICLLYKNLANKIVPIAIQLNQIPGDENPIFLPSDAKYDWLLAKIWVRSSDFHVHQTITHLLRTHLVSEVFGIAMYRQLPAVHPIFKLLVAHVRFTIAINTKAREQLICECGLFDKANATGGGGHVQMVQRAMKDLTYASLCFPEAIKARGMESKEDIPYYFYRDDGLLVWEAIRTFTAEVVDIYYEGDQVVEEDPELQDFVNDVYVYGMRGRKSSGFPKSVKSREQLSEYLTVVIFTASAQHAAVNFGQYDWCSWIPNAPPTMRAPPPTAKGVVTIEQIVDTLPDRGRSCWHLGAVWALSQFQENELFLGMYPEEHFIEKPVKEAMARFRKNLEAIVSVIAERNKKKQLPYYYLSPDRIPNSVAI

How the values were obtained:
[1] = biological target: 5-lipoxygenase (5-LOX) enzyme (Homo sapiens, UniProt P09917); assay: 5-LOX inhibitory assay; conditions: for 5-LOX percent inhibition: mean ± SEM, n = 3; for IC50: read-out: 5-LOX IC50
[2] = DPPH free radical scavenging (antioxidant) assay; conditions: for DPPH percent inhibition: mean ± SEM, n = 3; for IC50: read-out: DPPH IC50
Description: The previously outlined methodology will be employed to evaluate the compounds’ antioxidant ability, as determined by the processes of the 1,1-diphenyl, 2-picrylhydrazyl (DPPH) free radical. The experimental specimens will be subjected to dilution using different quantities, spanning from 62.5 to 1000 μg/ml, and afterwards introduced into a methanolic solution of DPPH at a concentration of 0.004%. At 517 nm, the absorbance will be determined by a UV spectrophotometer following a 30-minute duration. The scavenging capability of ascorbic acid will be quantified by employing the equation: DPPH=[(A0−A1)/A0]100 Whereas: […]
Every test was carried out three times, and the median inhibitory dosages (IC50) were determined. The drawing of inhibition graphs was performed by GraphPad Prism software-GraphPAD, San Diego, California, USA.
The IC50 is the concentration of the antioxidant required to scavenge 50% of the initial DPPH radicals. […] The IC50 values were determined from dosage response curve using Microsoft Excel program.

| SMILES | 5-LOX percent inhibition ([1]; 62.5 μg/ml) [%] | 5-LOX percent inhibition ([1]; 125 μg/ml) [%] | 5-LOX percent inhibition ([1]; 250 μg/ml) [%] | 5-LOX percent inhibition ([1]; 500 μg/ml) | 5-LOX percent inhibition ([1]; 1000 μg/ml) [%] | IC50 [1] [µM] | DPPH percent inhibition ([2]; 62.5 μg/mL) [%] | DPPH percent inhibition ([2]; 125 μg/mL) [%] | DPPH percent inhibition ([2]; 250 μg/mL) [%] | DPPH percent inhibition ([2]; 500 μg/mL) [%] | DPPH percent inhibition ([2]; 1000 μg/mL) [%] | IC50 [2] [µM] |
| --- | --- | --- | --- | --- | --- | --- | --- | --- | --- | --- | --- | --- |
| COc1ccc(C2NC(=O)NC(C(F)(F)F)=C2c2cc(-c3ccccc3)on2)cc1O (stereo not drawn) | 74.80±1.41 | 77.51±0.59 | 81.90±1.32 | 85.94±0.91% | 89.93±1.73 | 8.47 | 75.72±0.51 | 79.37±0.69 | 82.25±0.55 | 87.65±0.70 | 92.51±0.62 | 11 |
| Cc1ccc(C2NC(=O)NC(C(F)(F)F)=C2c2cc(-c3ccco3)on2)cc1 (stereo not drawn) | 71.03±1.79 | 75.30±1.67 | 78.30±2.67 | 82.31±1.20% and 82.7% | 86.70±1.20 | 9.8 | 61.35±0.18 | 66.2 | 73.42 | 78.62 | 83.53±0.20 | 54.7 |
